Test [1] addresses T1, 5-HT6 receptor (Homo sapiens, UniProt P50406). The test can be described thus: In vitro functional activity ((ant)agonism) on human 5-HT6 receptors, CHO-human-5HT6-Aequorin assay. The class given is cell-based. Further details: host or cells: CHO AequoScreen recombinant cell line (expresses mitochondrial targeted apo-Aequorin). The following applies: antagonism of 10^-8 M α-methylserotonin induced luminescence; comparison table Example 6; read-out: 5-HT6 pA2 (converted). The source says: Human-5-HT6-Aequorin cells express mitochondrial targeted apo-Aequorin. Cells have to be loaded with coelanterazine, in order to reconstitute active Aequorin. After binding of agonists to the human 5-HT6 receptor the intracellular calcium concentration increases and binding of calcium to the apo-Aequorin/coelenterazine complex leads to an oxidation reaction of coelenterazine, which results in the production of apo-Aequorin, coelenteramide, CO2 and light (λmax 469 nm). This luminescent response is dependent on the agonist concentration. Luminescence is measured using the MicroBeta Jet (Perkin Elmer). Agonistic effects of compounds are expressed as pEC50. […] Compounds were tested at a 5 log concentration range, and 3 independent experiments were performed in duplicate.

Amino acid sequences for entries named in this document (tags omitted).
UniProt P50406, whole entry: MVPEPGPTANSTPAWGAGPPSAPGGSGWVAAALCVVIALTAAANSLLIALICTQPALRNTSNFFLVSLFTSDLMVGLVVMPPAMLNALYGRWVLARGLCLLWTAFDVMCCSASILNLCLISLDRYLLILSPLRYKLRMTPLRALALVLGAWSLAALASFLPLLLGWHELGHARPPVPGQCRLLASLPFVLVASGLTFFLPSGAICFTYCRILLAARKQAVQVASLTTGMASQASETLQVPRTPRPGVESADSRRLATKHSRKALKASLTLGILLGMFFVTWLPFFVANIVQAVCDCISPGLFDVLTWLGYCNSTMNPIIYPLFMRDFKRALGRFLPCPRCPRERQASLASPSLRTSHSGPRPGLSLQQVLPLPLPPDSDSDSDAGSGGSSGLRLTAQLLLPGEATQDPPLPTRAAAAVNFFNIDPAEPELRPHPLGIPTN

In test [2] the target is T1, 5-HT6 receptor. The test can be described thus: In vitro affinity for human 5-HT6 receptors ([3H]-LSD binding, CHO cell membranes). The following applies: 5-HT6 pKi. Further details: host or cells: CHO/Gα16/mtAEQ/h5HT6-A1 cells.

The structures appear in SMILES notation.

On to `CCN/C(=N\S(=O)(=O)c1ccccc1)N1CC(C)(C)C=N1` [Compound 175 from WO 2008/034863, reference compound], for which the Kb in test [1] was 126 nM. Moreover, the Ki in test [2] is 63.1 nM.

Usually Ki stands for the equilibrium dissociation constant of an inhibitor or competing ligand from its target. A low value points to higher affinity.

Source of the values: US8563723B2, “Arylsulfonyl pyrazoline carboxamidine derivatives as 5-HT6 antagonists” (Abbott Healthcare Products, B.V., priority 2008, dated 2013).
